Literature values as cited in PMC2897767, “Two Distinct Mechanisms for Actin Capping Protein Regulation—Steric and Allosteric Inhibition” (PLoS Biology, 2010).

Biological target: CP
Conditions: previously reported value; cited from earlier work
Procedure: We tested the importance of the C-terminal flanking regions of the CP-binding motif using a binding assay (Table 2; the constructs used for the measurement are shown in Figure 9B). […] GST-CD47, containing CD Phe505, bound to CP with a KD of 1 ... || Fujiwara, et al. reported that the mCAH3 fragment (mouse CARMIL residues 965-1038) tightly binds to CP (KD ~ 1 nM) whereas GST-CA76 (residues 962-1037) in the present study interacts weakly with CP (Table 2). In the second CP binding site in the CP/CBR115 complex, human CARMIL Val1034 (corresponding to mouse CA1038), which is missing in GST-76, forms multiple interactions with CP α-subunit residues. Thus, the absence of this key valine in GST-CA76 results in the lower CP binding affinity compared with the full active CARMIL fragments.

For “GST-CD2AP fragment: GST-CD2AP fragment containing residues 474–513, literature value (VVNFDDIASSENLLHLTANRPKMPGRRLPGRFNGGHSPTH; GST fusion; UniProt Q9Y5K6 474-513, looked up, fragment) [reference compound]”, the Kd is listed as 5.6 nM.
